# Earlier results in PMC11634579, “Network pharmacology, experimental validation and pharmacokinetics integrated strategy to reveal pharmacological mechanism of goutengsan on methamphetamine dependence” (Frontiers in Pharmacology, 2024).
# Design: method as in Ru et al., 2014
# Details: obtained from TCMSP database; ref Ru et al., 2014; cited from earlier work
row,SMILES,OB% (oral bioavailability) [%]
1,CC[C@H](CC[C@@H](C)[C@H]1CC[C@H]2[C@@H]3CC=C4C[C@@H](O)CC[C@]4(C)[C@H]3CC[C@]12C)C(C)C [Beta-sitosterol],36.91
2,CC[C@@H](CC[C@@H](C)[C@H]1CC[C@H]2[C@@H]3CC=C4C[C@@H](O)CC[C@]4(C)[C@H]3CC[C@]12C)C(C)C [Clionasterol],36.91
3,CC1(C)CC[C@]2(C(=O)O)CC[C@]3(C)C(=CC[C@@H]4[C@@]5(C)CC[C@H](O)[C@@](C)(CO)[C@@H]5CC[C@]43C)[C@@H]2C1 [Hederagenin],36.91
4,CC[C@H](CC[C@@H](C)[C@H]1CC[C@H]2[C@@H]3CC=C4C[C@@H](O)CC[C@]4(C)[C@H]3CC[C@]12C)C(C)C [Sitosterol],36.91
